Source: ChEMBL document CHEMBL5226314, “Discovery, Structure-Activity Relationship, and Mechanistic Studies of 1-((3R,4S)-3-((Dimethylamino)methyl)-4-hydroxy-4-(3-methoxyphenyl)piperidin-1-yl)-2-(2,4,5-trifluorophenyl)ethan-1-one as a Novel Potent Analgesic” (J Med Chem, 2021)

Amino acid sequences for entries named in this document (tags omitted).
UniProt P35372, whole entry: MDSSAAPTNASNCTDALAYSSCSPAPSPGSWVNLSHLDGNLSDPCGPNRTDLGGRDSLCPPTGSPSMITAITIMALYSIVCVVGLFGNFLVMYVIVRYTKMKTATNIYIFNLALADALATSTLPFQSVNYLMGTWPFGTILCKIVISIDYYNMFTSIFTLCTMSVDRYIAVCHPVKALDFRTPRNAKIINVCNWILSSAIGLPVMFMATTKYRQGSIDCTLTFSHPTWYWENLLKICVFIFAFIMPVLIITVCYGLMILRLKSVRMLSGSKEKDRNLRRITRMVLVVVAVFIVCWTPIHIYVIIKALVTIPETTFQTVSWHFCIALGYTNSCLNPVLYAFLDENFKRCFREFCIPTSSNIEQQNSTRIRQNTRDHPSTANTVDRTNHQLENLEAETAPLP

Target: Mu-type opioid receptor (Homo sapiens, UniProt P35372)
Assay: Agonist activity at MOR (unknown origin) expressed in CHO cell membranes assessed as stimulation of [35S]GTPgammaS binding measured after 60 mins by liquid scintillation counting analysis

For `CN(C)C[C@H]1CCCC[C@]1(O)c1cccc(O)c1` [O-DESMETHYL TRAMADOL], the EC50 was 245 nM.
